In US11701371B2, “ENPP1 inhibitors and their use for the treatment of cancer” (THE BOARD OF TRUSTEES OF THE LELAND STANFORD JUNIOR …, priority 2017, dated 2023):

Tested on: 4T1-luciferase tumor
Assay: 4T1-luciferase tumor model with IR, cGAMP and anti-CTLA-4: tumor volume and survival
Type: in vivo, mouse
Details: IR pretreatment with compound 1 and anti-CTLA-4

COc1cc2ncnc(N3CCC(CCP(=O)(O)O)CC3)c2cc1OC [Compound 1, dimethyl (2-(1-(6,7-dimethoxyquinazolin-4-yl)piperidin-4-yl)ethyl)phosphonic acid]
cure rate: 10%
